Laboratory results: article PMC11088557 (Clinical Drug Investigation, 2024)

Conditions: viloxazine ER 900 mg qd, steady state

For CCOc1ccccc1OCC1CNCCO1 (stereo not drawn) [viloxazine], the “AUC24 ratio PMs/EMs (geometric means)” value (CYP2D6 PMs vs EMs) was 125.66 (105.36–149.87) %, the “Cmax ratio PMs/EMs (geometric means)” value (CYP2D6 PMs vs EMs) was 120.70 (102.33–142.37) % and the “increase in viloxazine exposure in CYP2D6 PMs relative to EMs” value was < 1.5 fold.
